Assays:
[1] = target: T1, MOR-1 (Mus musculus, UniProt P42866); assay: Competition binding against 125I-IBNtxA in MOR-1/CHO membranes
T1 construct: expressed in transfected cells; host or cells: CHO

Chains of the proteins cited; added tags and fusions are not shown.
UniProt P42866, whole entry: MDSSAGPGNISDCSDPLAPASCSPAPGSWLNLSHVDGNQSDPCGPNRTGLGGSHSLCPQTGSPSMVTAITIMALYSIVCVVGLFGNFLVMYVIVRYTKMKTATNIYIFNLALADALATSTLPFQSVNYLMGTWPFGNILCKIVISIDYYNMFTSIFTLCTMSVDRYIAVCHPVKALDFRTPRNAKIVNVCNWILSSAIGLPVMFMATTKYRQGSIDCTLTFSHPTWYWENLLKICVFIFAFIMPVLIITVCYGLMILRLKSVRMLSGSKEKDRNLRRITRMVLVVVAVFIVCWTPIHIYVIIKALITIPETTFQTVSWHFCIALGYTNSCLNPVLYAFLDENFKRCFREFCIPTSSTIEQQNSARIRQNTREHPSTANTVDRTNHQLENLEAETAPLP
UniProt P32300, whole entry: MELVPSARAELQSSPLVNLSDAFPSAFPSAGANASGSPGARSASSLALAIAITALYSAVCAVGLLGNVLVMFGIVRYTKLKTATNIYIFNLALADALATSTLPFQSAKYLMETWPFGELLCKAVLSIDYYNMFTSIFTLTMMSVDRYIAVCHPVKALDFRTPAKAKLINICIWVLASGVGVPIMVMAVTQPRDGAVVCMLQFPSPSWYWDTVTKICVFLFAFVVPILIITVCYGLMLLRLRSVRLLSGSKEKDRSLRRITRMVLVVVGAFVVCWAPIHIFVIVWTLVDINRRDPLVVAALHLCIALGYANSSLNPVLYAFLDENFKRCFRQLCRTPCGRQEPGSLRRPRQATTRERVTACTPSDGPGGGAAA

[2] = target: T2, DOR-1 (Mus musculus, UniProt P32300); assay: Competition binding against 125I-IBNtxA in DOR-1/CHO membranes; conditions: 125I-IBNtxA (0.1 nM), CHO membranes, cloned mouse receptor; read-out: Affinity (Ki nM) DOR-1
T2 construct: expressed in transfected cells; host or cells: CHO

SMILES: CC[C@@H]1CN2CCc3c([nH]c4ccccc34)[C@@H]2C[C@@H]1/C(=C\OC)C(=O)OC [VM1540, Methyl (E)-2-((2S,3S,12bS)-3-ethyl-1,2,3,4,6,7,12,12b-octahydroindolo[2,3-a]quinolizin-2-yl)-3-methoxyacrylate]
- Ki [1]: 0.057 µM
- Ki [2]: 172 nM

Reference: patent US12617790B2, “Mitragynine analogs and uses thereof” (Memorial Sloan-Kettering Cancer Center, priority 2015, dated 2026)
